Conditions in all cases: actives raise or lower the signal; mRNA level, 48 h
Read-out in test [1]: catalase (CAT), CAT (gene 847)
As to the kind of experiment: LTEA_HepaRG_CAT: Life Technologies and Expression Analysis (LTEA) Assay for catalase (CAT) using HepaRG (AID 2283452). The method in brief: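 HepaRG cells in serum-free induction medium, 0.5% DMSO vehicle, exposed 48 h in duplicate over 8 half-log concentrations from 100 uM. CAT mRNA measured by qRT-PCR, normalized to ACTB, GAPDH, POLR2A; bidirectional fit versus DMSO.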

By UniProt entry, the sequences of proteins in these tests, tags left out. Where a name states a change or a piece, a line headed by the entry shows the natural chain unless it says otherwise.
UniProt Q9UNQ0: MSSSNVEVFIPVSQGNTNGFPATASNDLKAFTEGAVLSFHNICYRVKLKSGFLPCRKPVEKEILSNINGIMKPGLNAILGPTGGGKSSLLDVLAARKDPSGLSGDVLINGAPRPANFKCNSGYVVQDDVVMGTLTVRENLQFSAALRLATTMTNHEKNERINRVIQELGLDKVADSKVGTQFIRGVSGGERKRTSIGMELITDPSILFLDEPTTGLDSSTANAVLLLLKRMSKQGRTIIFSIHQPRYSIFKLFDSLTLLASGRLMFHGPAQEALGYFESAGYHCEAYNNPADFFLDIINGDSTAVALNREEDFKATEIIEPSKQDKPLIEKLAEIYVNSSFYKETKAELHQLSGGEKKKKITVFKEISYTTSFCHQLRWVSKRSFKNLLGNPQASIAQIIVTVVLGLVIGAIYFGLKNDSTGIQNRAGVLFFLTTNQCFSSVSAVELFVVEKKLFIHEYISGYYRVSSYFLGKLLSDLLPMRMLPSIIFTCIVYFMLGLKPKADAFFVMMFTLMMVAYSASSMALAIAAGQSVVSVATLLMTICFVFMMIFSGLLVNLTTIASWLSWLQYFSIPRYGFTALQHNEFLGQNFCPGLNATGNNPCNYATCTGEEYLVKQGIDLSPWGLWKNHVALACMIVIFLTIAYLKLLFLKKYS

Read-out in test [2]: flavin-containing dimethylaniline monooxygenases 3 (FMO3), FMO3 (gene 2328)
The test is described as follows: LTEA_HepaRG_FMO3: Life Technologies and Expression Analysis (LTEA) Assay for flavin-containing dimethylaniline monooxygenases 3 (FMO3) using HepaRG (AID 2283453). In outline:
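Eight-point concentration-response in serum-free HepaRG cultures (top 100 uM, 0.5% DMSO, 48 h). Read-out: FMO3 mRNA level normalized to three endogenous control genes, fitted bidirectionally versus vehicle.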

Read-out in test [3]: Cytochrome P450 (CYP1A1), CYP1A1 (gene 1543)
The test is described as follows: LTEA_HepaRG_CYP1A1: Life Technologies and Expression Analysis (LTEA) Assay for Cytochrome P450 (CYP1A1) using HepaRG (AID 2283454). The method in brief: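 Differentiated HepaRG cells in serum-free induction medium were exposed in duplicate for 48 h to eight half-log concentrations up to 100 uM in 0.5% DMSO. CYP1A1 mRNA was quantified by TaqMan qRT-PCR, normalized to ACTB, GAPDH and POLR2A.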

Read-out in test [4]: CFLAR gene, CFLAR (gene 8837)
As to the kind of experiment: LTEA_HepaRG_CFLAR: Life Technologies and Expression Analysis (LTEA) Assay for CFLAR gene using HepaRG (AID 2283455). In outline: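 qRT-PCR read-out (Fluidigm/TaqMan) of CFLAR mRNA, normalized to three housekeeping genes, in differentiated human HepaRG cells after 48 h chemical exposure; 8-point half-log series from 100 uM in 0.5% DMSO; bidirectional curve fitting versus DMSO.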

Read-out in test [5]: Forkhead box O1 (FOXO1), FOXO1 (gene 2308)
As to the kind of experiment: LTEA_HepaRG_FOXO1: Life Technologies and Expression Analysis (LTEA) Assay for Forkhead box O1 (FOXO1) using HepaRG (AID 2283456). The method in brief: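 HepaRG, 48 h exposure, 8-pt half-log series from 100 uM in 0.5% DMSO, duplicates; Fluidigm qRT-PCR mRNA, housekeeping-normalised; bidirectional fit vs DMSO baseline.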

Read-out in test [6]: growth arrest and DNA damage 45 (GADD45A), GADD45A (gene 1647)
As to the kind of experiment: LTEA_HepaRG_GADD45A: Life Technologies and Expression Analysis (LTEA) Assay for growth arrest and DNA damage 45 (GADD45A) using HepaRG (AID 2283458). The method in brief: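 HepaRG, 48 h exposure, 8 conc. (top 100 uM, half-log steps), 0.5% DMSO vehicle, duplicates. Read-out: qRT-PCR mRNA level, housekeeping-normalized (ACTB/GAPDH/POLR2A). Curves fit bidirectionally vs DMSO baseline.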

Read-out in test [7]: Forkhead box O3 (FOXO3), FOXO3 (gene 2309)
As to the kind of experiment: LTEA_HepaRG_FOXO3: Life Technologies and Expression Analysis (LTEA) Assay for Forkhead box O3 (FOXO3) using HepaRG (AID 2283459). The method in brief: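 qRT-PCR readout of FOXO3 transcript, normalized to three housekeeping genes (ACTB, GAPDH, POLR2A); gain or loss fitted against 0.5% DMSO vehicle. HepaRG cells, 48 h chemical exposure, 8-point half-log series, top 100 uM.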

Read-out in test [8]: ABC Transporter (ABCB1), ABCB1 (gene 5243)
As to the kind of experiment: LTEA_HepaRG_ABCB1: Life Technologies and Expression Analysis (LTEA) Assay for ABC Transporter (ABCB1) using HepaRG (AID 2283460). The method in brief:
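HepaRG, 48 h exposure, 8-pt half-log series from 100 uM, 0.5% DMSO vehicle, duplicates. Readout: ABCB1 transcript by Fluidigm TaqMan qRT-PCR, housekeeping-normalized; bidirectional curve fit vs DMSO baseline.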

Read-out in test [9]: growth arrest and DNA damage 45 (GADD45B), GADD45B (gene 4616)
As to the kind of experiment: LTEA_HepaRG_GADD45B: Life Technologies and Expression Analysis (LTEA) Assay for growth arrest and DNA damage 45 (GADD45B) using HepaRG (AID 2283461). The method in brief:
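Differentiated HepaRG cells, plated 48 h then switched to serum-free induction medium, were exposed 48 h in duplicate to eight half-log concentrations from 100 uM in 0.5% DMSO; mRNA quantified by qRT-PCR, normalized to ACTB/GAPDH/POLR2A, bidirectional fit versus DMSO.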

Read-out in test [10]: ABC Transporter (ABCC3), ABCC3 (gene 8714)
The test is described as follows: LTEA_HepaRG_ABCC3: Life Technologies and Expression Analysis (LTEA) Assay for ABC Transporter (ABCC3) using HepaRG (AID 2283462). In outline: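 HepaRG cells in serum-free induction medium were exposed for 48 h in duplicate to 8-point half-log concentrations topping at 100 uM in 0.5% DMSO. ABCC3 mRNA was measured by qRT-PCR normalized to ACTB, GAPDH and POLR2A, with bidirectional fitting versus DMSO.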

Read-out in test [11]: ABC Transporter (ABCB11), ABCB11 (gene 8647)
The test is described as follows: LTEA_HepaRG_ABCB11: Life Technologies and Expression Analysis (LTEA) Assay for ABC Transporter (ABCB11) using HepaRG (AID 2283463). The method in brief:
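HepaRG, 48 h exposure, 8-pt half-log CRC top 100 uM, 0.5% DMSO vehicle, duplicates. Readout: TaqMan qRT-PCR of ABCB11 mRNA, housekeeping-normalized (ACTB/GAPDH/POLR2A). Bidirectional fit vs DMSO baseline.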

Read-out in test [12]: ABC Transporter (ABCC2), ABCC2 (gene 1244)
The test is described as follows: LTEA_HepaRG_ABCC2: Life Technologies and Expression Analysis (LTEA) Assay for ABC Transporter (ABCC2) using HepaRG (AID 2283464). In outline: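 HepaRG cells were plated 48 h, switched to serum-free induction medium, then exposed in duplicate for 48 h to 8 concentrations (top 100 uM, half-log steps, 0.5% DMSO). ABCC2 mRNA was measured by qRT-PCR normalized to ACTB/GAPDH/POLR2A; bidirectional fitting versus DMSO.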

Read-out in test [13]: Broad substrate specificity ATP-binding cassette transporter ABCG2 (Homo sapiens) (UniProt Q9UNQ0)
As to the kind of experiment: LTEA_HepaRG_ABCG2: Life Technologies and Expression Analysis (LTEA) Assay for ABC Transporter (ABCG2) using HepaRG (AID 2283465). The method in brief:
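HepaRG, 48 h exposure, 8-pt half-log series from 100 uM, 0.5% DMSO vehicle, duplicates. Readout: ABCG2 transcript by qRT-PCR (Fluidigm array), housekeeping-normalized; bidirectional curve fit relative to DMSO baseline.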

Read-out in test [14]: ATP-citrate lyase (ACLY), ACLY (gene 47)
As to the kind of experiment: LTEA_HepaRG_ACLY: Life Technologies and Expression Analysis (LTEA) Assay for ATP-citrate lyase (ACLY) using HepaRG (AID 2283466). The method in brief: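 qRT-PCR readout of ACLY transcript after 48 h chemical treatment of HepaRG cells; expression normalized to three housekeeping genes. Eight-point half-log series, highest 100 uM, 0.5% DMSO vehicle. Gain or loss fitted against DMSO baseline.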

Read-out in test [15]: Peroxisomal acyl-coenzyme A oxidase 1 (ACOX1) gene, ACOX1 (gene 51)
The test is described as follows: LTEA_HepaRG_ACOX1: Life Technologies and Expression Analysis (LTEA) Assay for Peroxisomal acyl-coenzyme A oxidase 1 (ACOX1) gene using HepaRG (AID 2283467). In outline:
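HepaRG, 48 h chemical exposure, 8-pt half-log series from 100 uM top, 0.5% DMSO vehicle, duplicates. Readout: ACOX1 mRNA by Fluidigm qRT-PCR, housekeeping-normalized; bidirectional fit vs DMSO baseline.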

Read-out in test [16]: Alkaline Phosphatase, Placental (ALPP) gene, ALPP (gene 250)
As to the kind of experiment: LTEA_HepaRG_ALPP: Life Technologies and Expression Analysis (LTEA) Assay for Alkaline Phosphatase, Placental (ALPP) gene using HepaRG (AID 2283468). In outline: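 Differentiated human HepaRG cells were plated and cultured 48 h, then exposed in duplicate for 48 h in serum-free induction medium to eight half-log concentrations from 100 uM in 0.5% DMSO. ALPP mRNA was measured by TaqMan qRT-PCR, normalized to ACTB, GAPDH, POLR2A.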

Read-out in test [17]: Bcl-2 (BAD) gene, BAD (gene 572)
The test is described as follows: LTEA_HepaRG_BAD: Life Technologies and Expression Analysis (LTEA) Assay for Bcl-2 (BAD) gene using HepaRG (AID 2283469). The method in brief: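 HepaRG, 48 h exposure, 8-pt half-log curve from 100 uM in 0.5% DMSO, duplicates. Readout: TaqMan qRT-PCR for BAD mRNA, housekeeping-normalised (ACTB/GAPDH/POLR2A); gain or loss fitted against DMSO baseline.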

Read-out in test [18]: Bcl-2 (BAX) gene, BAX (gene 581)
The test is described as follows: LTEA_HepaRG_BAX: Life Technologies and Expression Analysis (LTEA) Assay for Bcl-2 (BAX) gene using HepaRG (AID 2283470). In outline:
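qRT-PCR read-out of BAX mRNA, normalized to three housekeeping genes, after 48 h chemical exposure of human HepaRG cells in serum-free induction medium; eight-point half-log series, top 100 uM, 0.5% DMSO vehicle; bidirectional fit versus DMSO.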

Read-out in test [19]: adenosine kinase (ADK) gene, ADK (gene 132)
The test is described as follows: LTEA_HepaRG_ADK: Life Technologies and Expression Analysis (LTEA) Assay for adenosine kinase (ADK) gene using HepaRG (AID 2283471). The method in brief: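 ADK expression quantified by qRT-PCR, normalised to three housekeeping genes, after 48 h exposure of HepaRG cells to eight concentrations (top 100 uM, half-log steps, duplicate, 0.5% DMSO). Up- or down-regulation fitted relative to vehicle.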

This is a selection; strong and weak results do not stand in their true shares. Active and inactive are the calls of the source. The calls were made as follows: active = hit-call score of the fitted dose curve at least 0.9, where 1 is the maximum; inactive = score below 0.9.

In general, AC50 refers to the midpoint of the concentration-response curve, whichever way the signal moves.

In the case of `CN(C(=O)Cc1cccc2occc12)[C@H]1CC[C@@]2(CCCO2)C[C@@H]1N1CCCC1`, the result in [1], in test [2], in [4], in [5], in test [6] and in test [7] was inactive. The call in [9], in [10], in test [11], in [12], in test [13] and in [14] was inactive. Further, the result in [15], in test [16], in test [17], in [18] and in test [19] was inactive. For the same molecule, the AC50 in test [3] is active: 41.9 µM; in test [8], active: 33.4 µM.

Take `CC(C)OP(=S)(OC(C)C)SCCNS(=O)(=O)c1ccccc1`: the AC50 in test [2] was active: 81.2 µM; in test [3] it was active: 16.9 µM; in test [5] it was active: 86 µM; in test [6] it was active: 70.6 µM; in [7], active: 87.2 µM; in [8] it was active: 90.1 µM. Moreover, the AC50 in [11] is active: 94 µM; in test [12] it was active: 86.6 µM; in test [13] it was active: 12.3 µM; in test [14] it was active: 83.6 µM; in [15], active: 77.9 µM. In addition, the result in [4], in test [9], in test [10], in [16], in test [17] and in test [18] was inactive. For the same molecule, the molecule was classed as inactive in test [19].
